{"sequences": {"note": "By UniProt entry, the sequences of proteins in these tests, tags left out.", "UniProt P13866, whole entry": "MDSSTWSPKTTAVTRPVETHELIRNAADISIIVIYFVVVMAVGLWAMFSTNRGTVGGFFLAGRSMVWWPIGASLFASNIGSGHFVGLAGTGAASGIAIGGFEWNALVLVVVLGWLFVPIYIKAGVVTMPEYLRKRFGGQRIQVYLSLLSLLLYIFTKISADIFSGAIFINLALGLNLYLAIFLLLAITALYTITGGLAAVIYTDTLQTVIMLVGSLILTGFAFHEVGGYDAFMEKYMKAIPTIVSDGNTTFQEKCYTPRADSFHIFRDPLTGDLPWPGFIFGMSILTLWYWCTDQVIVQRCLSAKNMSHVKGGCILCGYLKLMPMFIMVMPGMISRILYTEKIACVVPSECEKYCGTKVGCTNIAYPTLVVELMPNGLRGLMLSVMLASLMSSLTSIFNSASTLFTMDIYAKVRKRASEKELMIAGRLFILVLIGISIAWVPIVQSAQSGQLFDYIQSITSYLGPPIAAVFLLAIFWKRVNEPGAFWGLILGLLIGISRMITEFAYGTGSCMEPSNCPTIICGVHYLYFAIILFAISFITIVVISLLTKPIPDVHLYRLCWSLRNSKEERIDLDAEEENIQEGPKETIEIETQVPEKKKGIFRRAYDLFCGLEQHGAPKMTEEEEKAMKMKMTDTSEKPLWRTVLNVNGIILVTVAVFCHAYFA"}, "source": "patent US12612426B2", "about": "“Aryl glucoside derivative” (Shanghai Zheye Biotechnology Co. Ltd., priority 2020, dated 2026)", "key": {"SGLT1 [1]": {"target": "T1, SGLT1 (Homo sapiens, UniProt P13866)", "assay": "SGLT1 inhibitor activity experiment 1", "conditions": "read-out: SGLT1 Activity", "protocol": "The inhibitory activity of SGLT1 was tested with reference to the method described in document (Journal of Medicinal Chemistry 2017, 60, 710-721, Discovery of LX2761, a Sodium-Dependent Glucose Cotransporter 1 (SGLT1) Inhibitor Restricted to the Intestinal Lumen, for the Treatment of Diabetes)."}, "SGLT1 [2]": {"target": "T1, SGLT1", "assay": "hSGLT1 inhibitor activity experiment 2: 2-NBDG uptake by HEK293 cells stably expressing human SGLT1", "conditions": "read-out: SGLT1 Inhibitory Activity", "protocol": "Inhibitory activity testing was performed with reference to a similar method described in document [Acta Pharmaceutica Sinica 2017, 52 (6): 897-903; Nature Protocols (2007), 2(3), 753-762; Journal of Biochemical and Biophysical Methods (2005), 64(3), 207-215; Diabetes Technology & Therapeutics (2011), 13(7), 743-775].\nIn this experiment, the in vitro activity assay was evaluated using the uptake of 2-NBDG (2-Deoxy-2-[(7-nitro-2,1,3-benzoxadiazol-4-yl)amino]-D-glucose, CAS NO: 186689-07-6) by human embryonic kidney epithelial cells (HEK293, stably expressing human SGLT1), and the SGLT1 inhibitory activity of the target compound was determined by measuring its half-maximal inhibitory concentration (IC50).\nHEK293 cells that can stably express human SGLT1 gene were inoculated into a 96-well clear-bottom black plate containing DMEM medium. The cells were incubated at 37° C., 5% CO2 in a cell incubator. […] The cells were lysed by adding NaOH, and the content of 2-NBDG in the cells was detected by a fluorescence microplate reader. The protein concentration of the lysate was measured by BCA method, the uptake of 2-NBDG was quantified by fluorescence intensity/protein content, and the obtained data were analyzed using GraphPad Prism to determine the median inhibitory concentration (IC50) of the compound to be tested. […]"}, "[3]": {"assay": "Oral glucose tolerance test (OGTT) after continuous administration in rats for 14 days", "protocol": "• Experimental animals: SPF male SD rats; • Compound preparation: an appropriate amount of the compounds of Example 1, Example 3, and Example 4 were weighed, and uniformly suspended with an appropriate amount of 0.5% CMC-Na solution; • Preparation of glucose solution: an appropriate amount of glucose powder was weighed and dissolved with an appropriate amount of pure water; • Dosage and method of administration: 0.009 mg/kg, oral gavage.\nExperimental process: the animals were fed a normal diet with consecutive administration for 14 days, and the glucose tolerance test was performed on day 15, blood glucose was detected before administration (−30 min), before giving glucose (0 min), and 10, 30, 60, and 120 min after giving glucose solution, and the defecation of animals was observed."}, "[4]": {"assay": "Oral glucose tolerance test (OGTT) after consecutive administration in mice, with observation of defecation", "conditions": "for blood glucose level in OGTT on day 6: oral gavage once a day for 5 days", "protocol": "• Experimental Animals: SPF Male SD Mice; • Compound preparation: an appropriate amount of the compound of Example 4 was weighed, and uniformly suspended with an appropriate amount of 0.5% CMC-Na solution; • Preparation of glucose solution: an appropriate amount of glucose powder was weighed and dissolved with an appropriate amount of pure water; • Administration and dosage: oral gavage; blank vehicle group, high-dose group (1.5 mg/kg), low-dose group (0.1 mg/kg). Experimental Process: • (1) The mice were fed a high-sugar diet for 6 days, and then grouped (10 mice in each group) to enter the administration stage; • (2) Example compound 4 was administered at 5:00 pm every day from day 1 to day 5, once a day, and then the animals were fed a high-sugar free diet, and the defecation of the animals was observed. • (3) On day 6, oral glucose tolerance test was performed, and glucose solution (2 g/kg) was orally administered. Blood glucose was detected before (0 min) and 10, 30, and 60 min after giving glucose solution, respectively. Experimental Results: • (1) From day 1 to day 5, the observation of animal defecation after continuous administration is summarized as follows: […]"}, "[5]": {"assay": "In vivo hypoglycemic efficacy experiment combined with sitagliptin, STZ-induced type 2 diabetes mouse model", "conditions": "0.02, 0.05 or 0.1 mg/kg combined with 20 mg/kg of sitagliptin", "protocol": "Model establishment: SPF grade Balb/C male mice were used in this experiment, and the establishment of the type 2 diabetes mouse model was induced by intraperitoneal injection of streptozotocin (STZ) supplemented by high-fat and high-sugar diet.\nAdministration: normal group, model group, low-dose combined administration group (0.02 mg/kg of the compound of Example 4+20 mg/kg of sitagliptin), medium-dose combined administration group (0.05 mg/kg of the compound of Example 4+20 mg/kg of sitagliptin), high-dose combined administration group (0.1 mg/kg of the compound of Example 4+20 mg/kg of sitagliptin), sitagliptin group (20 mg/kg). The normal group and the model group were given the solvent by gavage."}, "[6]": {"system": "microorganisms in rat feces", "assay": "Intestinal microbial metabolic stability in rat feces suspension", "conditions": "for Percentage of the remaining compound: rat feces suspension, 37° C.", "protocol": "Methods: The collected rat feces were processed, and the feces suspension was obtained for the determination of metabolic stability. The mixed reaction system consisting of the rat feces suspension and the compound of Example 5 was incubated at 37° C. for 3 h, 6 h, 12 h and 24 h. The compound of Example 4 in the incubation system was analyzed to determine the total amount of remaining compound. Wherein, “+” represents the remaining percentage being: <50%; “++” represents the remaining percentage being: 50% to 70%; “+++” represents the remaining percentage being: 70% to 90%; “++++” means the remaining percentage being: >90%."}}}
{"smiles": "C#CCN(C)CCNC(=O)C(C)(C)NC(=O)CCCc1ccc(Cc2cc([C@@H]3O[C@H](SC)[C@@H](O)[C@H](O)[C@H]3O)ccc2C)cc1", "values": [{"measurement": "IC50", "setting": "SGLT1 [1]", "value": "< 50", "unit": "nM"}, {"measurement": "IC50", "setting": "SGLT1 [2]", "value": 0.35, "unit": "nM"}, {"measurement": "blood sugar level in OGTT", "setting": "[3]; 0.009 mg/kg oral gavage for 14 days, OGTT on day 15", "value": "significantly reduce the blood sugar level of rats"}, {"measurement": "loose stools", "setting": "[3]; 0.009 mg/kg oral gavage, within 48 hours before and after the experiment", "value": "no loose stools were observed"}, {"measurement": "Statistics of loose stools in animals", "setting": "[4]; high-dose group (1.5 mg/kg), Day 1, animals with loose stool/animals in group", "value": "3/10"}, {"measurement": "Statistics of loose stools in animals", "setting": "[4]; high-dose group (1.5 mg/kg), Day 2", "value": "1/10"}, {"measurement": "Statistics of loose stools in animals", "setting": "[4]; high-dose group (1.5 mg/kg), Day 3", "value": "0/10"}, {"measurement": "Statistics of loose stools in animals", "setting": "[4]; high-dose group (1.5 mg/kg), Day 4", "value": "0/10"}, {"measurement": "Statistics of loose stools in animals", "setting": "[4]; high-dose group (1.5 mg/kg), Day 5", "value": "0/10"}, {"measurement": "blood glucose level in OGTT on day 6", "setting": "[4]; high-dose group (1.5 mg/kg)", "value": "significantly reduce the blood glucose level of mice"}, {"measurement": "Statistics of loose stools in animals", "setting": "[4]; low-dose group (0.1 mg/kg), Day 1", "value": "0/10"}, {"measurement": "Statistics of loose stools in animals", "setting": "[4]; low-dose group (0.1 mg/kg), Day 2", "value": "0/10"}, {"measurement": "Statistics of loose stools in animals", "setting": "[4]; low-dose group (0.1 mg/kg), Day 3", "value": "0/10"}, {"measurement": "Statistics of loose stools in animals", "setting": "[4]; low-dose group (0.1 mg/kg), Day 4", "value": "0/10"}, {"measurement": "Statistics of loose stools in animals", "setting": "[4]; low-dose group (0.1 mg/kg), Day 5", "value": "0/10"}, {"measurement": "blood glucose level in OGTT on day 6", "setting": "[4]; low-dose group (0.1 mg/kg)", "value": "significantly reduce the blood glucose level of mice"}, {"measurement": "blood glucose level of diabetic model animals", "setting": "[5]", "value": "significantly reduce the blood glucose level of diabetic model animals"}, {"measurement": "remaining compound after incubation with microorganisms in rat feces", "setting": "[6]; about 24 hours", "value": "> 70", "unit": "%"}, {"measurement": "Percentage of the remaining compound", "setting": "[6]; incubation time 3 h", "value": "++++ (the remaining percentage being: >90%)"}, {"measurement": "Percentage of the remaining compound", "setting": "[6]; incubation time 6 h", "value": "++++ (the remaining percentage being: >90%)"}, {"measurement": "Percentage of the remaining compound", "setting": "[6]; incubation time 12 h", "value": "+++ (the remaining percentage being: 70% to 90%)"}, {"measurement": "Percentage of the remaining compound", "setting": "[6]; incubation time 24 h", "value": "+++ (the remaining percentage being: 70% to 90%)"}]}
